Data published in paper PMC10104807, “Modulation of tau tubulin kinases (TTBK1 and TTBK2) impacts ciliogenesis” (Scientific Reports, 2023).
Where “and” joins values, the source holds several entries; their conditions need not be identical. Equal entries are not always repeated. Where two headings read alike, the source gives them in different places.

Sequences of proteins named here, by UniProt entry; tags and fusion partners are left off. Residues count along the entry.
UniProt Q6IQ55, 21-284 limits assumed: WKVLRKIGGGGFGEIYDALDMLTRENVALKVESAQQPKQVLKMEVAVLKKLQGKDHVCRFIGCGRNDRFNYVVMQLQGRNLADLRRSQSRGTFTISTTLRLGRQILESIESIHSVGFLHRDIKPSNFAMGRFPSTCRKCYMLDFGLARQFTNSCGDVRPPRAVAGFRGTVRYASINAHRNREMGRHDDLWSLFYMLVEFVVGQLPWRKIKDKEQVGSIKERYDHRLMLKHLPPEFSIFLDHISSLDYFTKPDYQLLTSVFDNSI
UniProt Q6IQ55, whole entry: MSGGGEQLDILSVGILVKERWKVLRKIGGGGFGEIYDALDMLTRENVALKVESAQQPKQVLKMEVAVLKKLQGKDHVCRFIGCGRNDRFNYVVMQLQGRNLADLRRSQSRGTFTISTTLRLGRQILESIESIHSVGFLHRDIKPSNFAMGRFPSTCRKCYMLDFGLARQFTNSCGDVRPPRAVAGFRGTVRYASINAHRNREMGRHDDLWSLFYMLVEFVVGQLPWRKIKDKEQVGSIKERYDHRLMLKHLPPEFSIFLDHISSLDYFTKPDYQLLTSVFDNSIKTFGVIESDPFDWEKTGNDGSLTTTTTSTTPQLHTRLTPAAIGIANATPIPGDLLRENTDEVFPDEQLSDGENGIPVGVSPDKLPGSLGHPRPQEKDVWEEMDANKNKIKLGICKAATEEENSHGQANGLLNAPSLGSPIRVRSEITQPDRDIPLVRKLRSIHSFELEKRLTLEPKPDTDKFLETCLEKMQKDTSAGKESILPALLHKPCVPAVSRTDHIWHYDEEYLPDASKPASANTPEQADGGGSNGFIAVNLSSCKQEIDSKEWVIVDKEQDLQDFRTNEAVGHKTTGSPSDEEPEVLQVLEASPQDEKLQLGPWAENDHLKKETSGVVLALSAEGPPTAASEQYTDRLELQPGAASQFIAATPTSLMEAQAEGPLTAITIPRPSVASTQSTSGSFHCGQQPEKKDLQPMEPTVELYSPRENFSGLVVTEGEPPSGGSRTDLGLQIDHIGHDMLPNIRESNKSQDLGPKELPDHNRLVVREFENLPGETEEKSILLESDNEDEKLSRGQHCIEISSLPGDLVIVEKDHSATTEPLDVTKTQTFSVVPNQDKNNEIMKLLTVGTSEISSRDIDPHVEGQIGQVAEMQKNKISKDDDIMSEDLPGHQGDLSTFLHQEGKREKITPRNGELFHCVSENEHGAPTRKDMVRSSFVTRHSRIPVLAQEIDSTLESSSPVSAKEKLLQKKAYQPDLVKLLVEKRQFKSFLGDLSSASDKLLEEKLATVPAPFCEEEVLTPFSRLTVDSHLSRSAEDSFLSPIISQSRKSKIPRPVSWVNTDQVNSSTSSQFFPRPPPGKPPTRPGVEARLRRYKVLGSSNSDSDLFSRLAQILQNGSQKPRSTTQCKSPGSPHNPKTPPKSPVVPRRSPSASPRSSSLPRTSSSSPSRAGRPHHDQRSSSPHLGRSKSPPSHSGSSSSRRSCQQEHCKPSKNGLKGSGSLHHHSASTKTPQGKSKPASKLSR
UniProt O14578, whole entry: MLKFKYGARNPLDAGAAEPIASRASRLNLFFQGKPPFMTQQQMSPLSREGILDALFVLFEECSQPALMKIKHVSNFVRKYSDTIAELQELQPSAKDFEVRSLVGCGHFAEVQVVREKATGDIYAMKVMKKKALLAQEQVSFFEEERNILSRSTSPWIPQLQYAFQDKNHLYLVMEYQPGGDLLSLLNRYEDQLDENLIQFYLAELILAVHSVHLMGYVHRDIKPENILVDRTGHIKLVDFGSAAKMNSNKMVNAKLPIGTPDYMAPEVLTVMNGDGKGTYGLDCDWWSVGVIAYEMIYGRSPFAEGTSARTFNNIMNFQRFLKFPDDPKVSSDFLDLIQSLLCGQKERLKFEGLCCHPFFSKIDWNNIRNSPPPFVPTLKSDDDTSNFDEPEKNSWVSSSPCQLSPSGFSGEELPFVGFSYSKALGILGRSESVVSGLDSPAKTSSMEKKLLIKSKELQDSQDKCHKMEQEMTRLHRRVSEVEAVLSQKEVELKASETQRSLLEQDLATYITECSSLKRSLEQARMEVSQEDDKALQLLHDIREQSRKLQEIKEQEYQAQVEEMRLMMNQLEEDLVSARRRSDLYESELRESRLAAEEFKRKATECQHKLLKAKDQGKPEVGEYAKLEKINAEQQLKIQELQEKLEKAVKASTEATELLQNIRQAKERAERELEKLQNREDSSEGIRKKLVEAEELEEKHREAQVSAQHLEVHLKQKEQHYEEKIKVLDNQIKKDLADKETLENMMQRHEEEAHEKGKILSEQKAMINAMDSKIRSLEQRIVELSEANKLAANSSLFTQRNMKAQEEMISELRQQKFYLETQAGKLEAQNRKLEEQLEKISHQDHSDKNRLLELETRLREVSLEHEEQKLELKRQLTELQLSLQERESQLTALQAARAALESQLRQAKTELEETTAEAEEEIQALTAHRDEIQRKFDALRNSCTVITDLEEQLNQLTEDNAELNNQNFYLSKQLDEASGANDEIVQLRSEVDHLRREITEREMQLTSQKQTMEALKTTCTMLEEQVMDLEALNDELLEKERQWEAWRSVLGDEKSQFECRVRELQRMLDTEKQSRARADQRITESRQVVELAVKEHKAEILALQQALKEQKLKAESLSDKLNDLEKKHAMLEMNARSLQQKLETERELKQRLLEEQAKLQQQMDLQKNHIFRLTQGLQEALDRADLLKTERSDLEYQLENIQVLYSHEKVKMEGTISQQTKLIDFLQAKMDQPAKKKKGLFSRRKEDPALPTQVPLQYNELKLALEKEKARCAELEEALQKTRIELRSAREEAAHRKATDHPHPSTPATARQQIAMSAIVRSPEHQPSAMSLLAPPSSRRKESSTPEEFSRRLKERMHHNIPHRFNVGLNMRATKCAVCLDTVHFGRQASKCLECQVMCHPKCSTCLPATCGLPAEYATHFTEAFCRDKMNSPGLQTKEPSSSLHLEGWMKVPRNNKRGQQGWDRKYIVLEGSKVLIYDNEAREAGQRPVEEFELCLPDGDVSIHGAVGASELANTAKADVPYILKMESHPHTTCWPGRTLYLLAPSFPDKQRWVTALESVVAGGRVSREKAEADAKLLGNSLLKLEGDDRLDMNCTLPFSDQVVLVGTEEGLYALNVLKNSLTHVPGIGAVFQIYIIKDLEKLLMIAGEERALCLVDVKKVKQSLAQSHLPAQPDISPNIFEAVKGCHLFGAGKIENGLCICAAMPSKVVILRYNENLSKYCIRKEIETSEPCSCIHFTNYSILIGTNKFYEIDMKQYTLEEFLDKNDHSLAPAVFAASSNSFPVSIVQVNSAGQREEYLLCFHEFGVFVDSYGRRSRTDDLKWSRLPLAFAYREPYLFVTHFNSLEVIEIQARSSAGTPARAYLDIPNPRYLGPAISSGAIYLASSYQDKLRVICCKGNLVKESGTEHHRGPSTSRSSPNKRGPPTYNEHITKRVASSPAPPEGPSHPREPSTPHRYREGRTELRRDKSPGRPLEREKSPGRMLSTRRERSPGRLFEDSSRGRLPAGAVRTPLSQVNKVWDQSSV
UniProt P48730, whole entry: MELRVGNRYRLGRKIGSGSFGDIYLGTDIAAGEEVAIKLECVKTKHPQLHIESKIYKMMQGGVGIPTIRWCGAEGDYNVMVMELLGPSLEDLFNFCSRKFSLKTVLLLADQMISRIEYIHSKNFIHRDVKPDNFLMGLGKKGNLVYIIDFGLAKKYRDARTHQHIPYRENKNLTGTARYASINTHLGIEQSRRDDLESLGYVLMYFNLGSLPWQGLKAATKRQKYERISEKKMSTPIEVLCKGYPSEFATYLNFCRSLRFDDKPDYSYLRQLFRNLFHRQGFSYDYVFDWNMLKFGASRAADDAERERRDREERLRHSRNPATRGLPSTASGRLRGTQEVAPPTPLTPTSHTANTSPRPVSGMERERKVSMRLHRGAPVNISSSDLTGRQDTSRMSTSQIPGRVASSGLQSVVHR
UniProt Q86YV6, whole entry: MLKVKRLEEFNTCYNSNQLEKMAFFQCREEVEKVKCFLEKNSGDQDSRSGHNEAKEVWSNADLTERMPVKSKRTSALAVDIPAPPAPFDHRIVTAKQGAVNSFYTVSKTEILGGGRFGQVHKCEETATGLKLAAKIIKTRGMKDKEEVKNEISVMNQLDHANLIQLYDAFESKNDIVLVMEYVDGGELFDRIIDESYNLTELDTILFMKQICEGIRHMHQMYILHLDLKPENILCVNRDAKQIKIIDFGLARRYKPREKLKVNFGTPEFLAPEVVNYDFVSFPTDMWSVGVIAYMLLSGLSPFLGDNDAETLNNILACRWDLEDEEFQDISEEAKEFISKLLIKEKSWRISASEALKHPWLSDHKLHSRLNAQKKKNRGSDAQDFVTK
UniProt P45985, whole entry: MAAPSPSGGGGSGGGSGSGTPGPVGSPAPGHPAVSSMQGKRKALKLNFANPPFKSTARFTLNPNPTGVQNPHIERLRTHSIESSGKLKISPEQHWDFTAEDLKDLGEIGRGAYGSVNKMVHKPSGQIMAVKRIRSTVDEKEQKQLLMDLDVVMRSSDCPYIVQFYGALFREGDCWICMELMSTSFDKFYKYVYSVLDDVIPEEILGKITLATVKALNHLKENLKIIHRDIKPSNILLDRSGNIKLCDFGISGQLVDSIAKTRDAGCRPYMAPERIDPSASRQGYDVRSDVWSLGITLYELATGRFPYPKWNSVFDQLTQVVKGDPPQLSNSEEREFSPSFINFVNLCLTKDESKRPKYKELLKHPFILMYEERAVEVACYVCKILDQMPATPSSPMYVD
UniProt O75716, whole entry: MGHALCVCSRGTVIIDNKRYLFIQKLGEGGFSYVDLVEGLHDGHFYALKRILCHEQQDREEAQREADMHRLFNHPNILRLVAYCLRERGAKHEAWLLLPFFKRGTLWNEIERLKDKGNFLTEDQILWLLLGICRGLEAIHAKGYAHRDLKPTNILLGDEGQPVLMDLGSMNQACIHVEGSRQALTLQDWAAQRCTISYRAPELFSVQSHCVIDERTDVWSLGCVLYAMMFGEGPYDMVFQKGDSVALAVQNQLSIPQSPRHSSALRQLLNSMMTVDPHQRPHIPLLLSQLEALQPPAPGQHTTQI
UniProt Q5TCY1, whole entry: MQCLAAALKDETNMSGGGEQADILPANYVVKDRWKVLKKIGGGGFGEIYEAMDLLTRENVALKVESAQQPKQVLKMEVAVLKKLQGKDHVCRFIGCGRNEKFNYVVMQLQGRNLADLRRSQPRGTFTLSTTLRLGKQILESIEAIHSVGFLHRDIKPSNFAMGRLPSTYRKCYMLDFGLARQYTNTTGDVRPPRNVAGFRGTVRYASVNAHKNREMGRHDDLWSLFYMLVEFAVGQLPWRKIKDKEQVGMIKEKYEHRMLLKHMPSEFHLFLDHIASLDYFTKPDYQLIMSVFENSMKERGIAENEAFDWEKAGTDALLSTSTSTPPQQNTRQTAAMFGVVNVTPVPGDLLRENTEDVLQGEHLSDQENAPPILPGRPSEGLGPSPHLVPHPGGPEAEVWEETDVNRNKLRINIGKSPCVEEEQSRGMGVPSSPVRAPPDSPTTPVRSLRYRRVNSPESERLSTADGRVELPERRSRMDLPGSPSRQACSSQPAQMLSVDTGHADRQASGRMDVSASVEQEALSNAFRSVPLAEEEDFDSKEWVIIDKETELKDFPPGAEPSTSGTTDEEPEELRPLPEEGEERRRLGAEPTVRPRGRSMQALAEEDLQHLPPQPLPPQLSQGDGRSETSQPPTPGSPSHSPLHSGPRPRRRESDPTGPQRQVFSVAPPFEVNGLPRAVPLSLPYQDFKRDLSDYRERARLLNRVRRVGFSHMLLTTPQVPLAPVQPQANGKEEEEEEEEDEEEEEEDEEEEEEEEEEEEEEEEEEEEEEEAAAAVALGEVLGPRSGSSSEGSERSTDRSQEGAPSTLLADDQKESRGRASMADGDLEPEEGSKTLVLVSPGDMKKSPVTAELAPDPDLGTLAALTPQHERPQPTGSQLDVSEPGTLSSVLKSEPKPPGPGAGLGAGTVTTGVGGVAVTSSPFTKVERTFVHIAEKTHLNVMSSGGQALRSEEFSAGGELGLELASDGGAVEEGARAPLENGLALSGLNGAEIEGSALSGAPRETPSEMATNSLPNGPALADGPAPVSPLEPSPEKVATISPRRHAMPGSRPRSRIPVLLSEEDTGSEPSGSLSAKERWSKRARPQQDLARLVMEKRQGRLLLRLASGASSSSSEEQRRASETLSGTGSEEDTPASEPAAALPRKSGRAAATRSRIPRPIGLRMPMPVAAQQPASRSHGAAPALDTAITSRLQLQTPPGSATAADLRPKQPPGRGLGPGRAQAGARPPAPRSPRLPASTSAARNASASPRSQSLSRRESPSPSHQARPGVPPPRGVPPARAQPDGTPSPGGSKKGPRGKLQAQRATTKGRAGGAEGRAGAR

Assays:
[1] = test system: 403 wild-type (WT) human kinases; test: DiscoverX scanMAX kinome-wide selectivity; format: binding; conditions: for # scanMAX kinases with PoC < 10: 1 μM; for S10(1 μM): share of 403 WT human kinases with PoC < 10 at 1 μM
TTBK2 kinase domain = TTBK2 kinase domain (Homo sapiens, UniProt Q6IQ55); test: Thermal shift assay; conditions: kinase domain 2 µM, inhibitor 10 µM
total TDP-43 = test: Western blot of SH-SY5Y cells, total TDP-43
CIT = CIT (Homo sapiens, UniProt O14578); test: DiscoverX scanMAX binding assay; conditions: 1 μM
CSNK1D [2] = biological target: T1, CSNK1D (Homo sapiens, UniProt P48730); test: DiscoverX scanMAX binding assay; conditions: 1 μM
MAP3K2 = MAP3K2 (Homo sapiens, UniProt Q9Y2U5); test: DiscoverX scanMAX binding assay; conditions: 1 μM
MAP3K3 = MAP3K3 (Homo sapiens, UniProt Q99759); test: DiscoverX scanMAX binding assay; conditions: 1 μM
MYLK4 [3] = biological target: T2, MYLK4 (Homo sapiens, UniProt Q86YV6); test: DiscoverX scanMAX binding assay; conditions: 1 μM
PAK4 = PAK4 (Homo sapiens, UniProt O96013); test: DiscoverX scanMAX binding assay; conditions: 1 μM
PAK6 = PAK6 (Homo sapiens, UniProt Q9NQU5); test: DiscoverX scanMAX binding assay; conditions: 1 μM
PAK7 = PAK7 (Homo sapiens, UniProt Q9P286); test: DiscoverX scanMAX binding assay; conditions: 1 μM
PIP5K2C = PIP5K2C (Homo sapiens, UniProt Q8TBX8); test: DiscoverX scanMAX binding assay; conditions: 1 μM
TAOK2 = TAOK2 (Homo sapiens, UniProt Q9UL54); test: DiscoverX scanMAX binding assay; conditions: 1 μM
TAOK3 = TAOK3 (Homo sapiens, UniProt Q9H2K8); test: DiscoverX scanMAX binding assay; conditions: 1 μM
TSSK3 = TSSK3 (Homo sapiens, UniProt Q96PN8); test: DiscoverX scanMAX binding assay; conditions: 1 μM
CHK2 = CHK2 (Homo sapiens, UniProt O96017); test: Eurofins enzymatic radiometric kinase assay; conditions: read-out: CHK2 IC50, ATP at Km
CLK2 [4] = biological target: T3, CLK2 (Homo sapiens, UniProt P49760); test: Eurofins enzymatic radiometric kinase assay; conditions: read-out: CLK2 IC50, ATP at Km
CRIK = CRIK (Homo sapiens, UniProt O14578); test: Eurofins enzymatic radiometric kinase assay; conditions: read-out: CRIK IC50, ATP at Km
CSNK1D [5] = biological target: T1, CSNK1D; test: Eurofins enzymatic radiometric kinase assay; conditions: read-out: CSNK1D IC50, ATP at Km
CSNK1E = CSNK1E (Homo sapiens, UniProt P49674); test: Eurofins enzymatic radiometric kinase assay; conditions: read-out: CSNK1E IC50, ATP at Km
MKK4 = MKK4 (Homo sapiens, UniProt P45985); test: Eurofins enzymatic radiometric kinase assay; conditions: read-out: MKK4 IC50, ATP at Km
PIP5K1C = PIP5K1C (Homo sapiens, UniProt O60331); test: Eurofins enzymatic radiometric kinase assay; conditions: read-out: PIP5K1C IC50, ATP at Km
PKD3 = PKD3 (Homo sapiens, UniProt O94806); test: Eurofins enzymatic radiometric kinase assay; conditions: read-out: PKD3 IC50, ATP at Km
STK16 [6] = biological target: T4, STK16 (Homo sapiens, UniProt O75716); test: Eurofins enzymatic radiometric kinase assay; conditions: read-out: STK16 IC50, ATP at Km
MYLK4 [7] = biological target: T2, MYLK4; test: RBC radiometric HotSpot kinase assay; conditions: read-out: MYLK4 IC50, Enzymatic, ATP at Km, 10-pt curve
RIPK5 = RIPK5 (Homo sapiens, UniProt Q6XUX3); test: RBC radiometric HotSpot kinase assay; conditions: read-out: RIPK5 IC50, Enzymatic, ATP at Km, 10-pt curve
YSK4 = YSK4 (Homo sapiens, UniProt Q56UN5); test: RBC radiometric HotSpot kinase assay; conditions: read-out: YSK4 IC50, Enzymatic, ATP at Km, 10-pt curve
NLuc-TTBK1 = NLuc-TTBK1 (Homo sapiens, UniProt Q5TCY1); test: TTBK1 NanoBRET cellular target engagement assay in HEK293 cells; format: cell-based; conditions: 2 μM tracer 29
NLuc-TTBK2 = NLuc-TTBK2 (Homo sapiens, UniProt Q6IQ55); test: TTBK2 NanoBRET cellular target engagement assay in HEK293 cells; format: cell-based; conditions: read-out: TTBK2 intact cell NB IC50; intact HEK293 cells, 2 μM tracer 29
[8] = test system: primary cilia on human iPSCs; test: Cilia imaging on iPSCs; conditions: 72 h starvation, inhibitor 0.1–1 μM for 24 h or 72 h
CLK2 [9] = biological target: T3, CLK2; test: DiscoverX scanMAX binding assay; conditions: 1 μM
PRKD3 = PRKD3 (Homo sapiens, UniProt O94806); test: DiscoverX scanMAX binding assay; conditions: 1 μM
STK16 [10] = biological target: T4, STK16; test: DiscoverX scanMAX binding assay; conditions: 1 μM

CCC(C)(O)C#Cc1ccc2[nH]c3c(c2c1)-c1nc(N)ncc1CCC3 (racemic)
# scanMAX kinases with PoC < 10 [1]: 22
S10(1 μM) [1]: 0.055
ΔTm TTBK2 (TTBK2 kinase domain): 7.4 °C
decrease in total TDP-43 (total TDP-43; 5 μM one hour prior to 40 μM ethacrynic acid, harvested after 24 h): ~ 44%
decrease in total TDP-43 expression (total TDP-43; 24 h treatment, up to 5 μM): ~ 40%
decrease in total TDP-43 expression (total TDP-43; 48 h treatment, up to 5 μM): ~ 60%
CIT (CRIK) % control at 1000nM / DiscoverX PoC value (CIT): 2.4 % control
CSNK1D % control at 1000nM / DiscoverX PoC value (CSNK1D [2]): 8.2 % control
MAP3K2 % control at 1000nM (MAP3K2): 2.2 % control
MAP3K3 % control at 1000nM (MAP3K3): 6.1 % control
MYLK4 % control at 1000nM / DiscoverX PoC value (MYLK4 [3]): 0.6 % control
PAK4 % control at 1000nM (PAK4): 4.3 % control
PAK6 % control at 1000nM (PAK6): 6.7 % control
PAK7 % control at 1000nM (PAK7): 1.8 % control
PIP5K2C (PI5P4Kγ) % control at 1000nM / DiscoverX PoC value (PIP5K2C): 0.6 % control
TAOK2 % control at 1000nM / DiscoverX PoC value (TAOK2): 7.9 % control
TAOK3 % control at 1000nM (TAOK3): 7.8 % control
TSSK3 % control at 1000nM / DiscoverX PoC value (TSSK3): 2.4 % control

CCC(O)(C#Cc1ccc2[nH]c3c(c2c1)-c1nc(N)ncc1CCC3)CC
IC50 (CHK2): 4.1 µM
IC50 (CLK2 [4]): 2.8 µM
IC50 (CRIK): > 10 µM
IC50 (CSNK1D [5]): 0.42 µM
IC50 (CSNK1E): 0.82 µM
IC50 (MKK4): > 10 µM
IC50 (PIP5K1C): 2.1 µM
IC50 (PKD3): 1.1 µM
IC50 (STK16 [6]): 0.3 µM
IC50 (MYLK4 [7]): 0.09 µM and < 0.1 µM
IC50 (RIPK5): 1.3 µM
IC50 (YSK4): 0.051 µM and < 0.1 µM
# scanMAX kinases with PoC < 10 [1]: 7
S10(1 μM) [1]: 0.017
ΔTm TTBK2 (TTBK2 kinase domain): 7.7 °C
IC50 (NLuc-TTBK1; read-out: TTBK1 intact cell NB IC50, intact HEK293 cells): 12.7 µM
IC50 (NLuc-TTBK1; read-out: TTBK1 permeabilized cell NB IC50, permeabilized HEK293 cells (digitonin)): < 4.1 µM and 2.11 µM
IC50 (NLuc-TTBK2): 6.4 µM
decrease in total TDP-43 expression (total TDP-43; 24 h treatment, up to 5 μM): no changes
decrease in total TDP-43 expression (total TDP-43; 48 h treatment, up to 5 μM): did not change
decrease in total TDP-43 expression (total TDP-43; 72 h treatment, 5 μM, one replicate, data not shown): 13–16%
percentage of ciliated cells / expression of primary cilia [8]: time- and dose-dependent response
CIT (CRIK) % control at 1000nM / DiscoverX PoC value (CIT): 30 % control
CLK2 DiscoverX PoC value (CLK2 [9]): 27 % control
CSNK1D % control at 1000nM / DiscoverX PoC value (CSNK1D [2]): 21 % control
MYLK4 % control at 1000nM / DiscoverX PoC value (MYLK4 [3]): 2.4 % control
PIP5K2C (PI5P4Kγ) % control at 1000nM / DiscoverX PoC value (PIP5K2C): 15 % control
PRKD3 (PKD3) % control at 1000nM / DiscoverX PoC value (PRKD3): 0 % control
STK16 DiscoverX PoC value (STK16 [10]): 28 % control
TAOK2 % control at 1000nM / DiscoverX PoC value (TAOK2): 66 % control
TSSK3 % control at 1000nM / DiscoverX PoC value (TSSK3): 24 % control
